The list shows a part of the results, in another mix than the full data. Calls of active or inactive are those of the source. No stated cut-off is given here; in the data, active means inhibition above about 75%; inactive means the rest.

This test is described as follows: quenches luminol chemiluminescence in Nox1 counter-screen (AID 1823). To be noted: HRP/luminol/H2O2 chemiluminescence counterscreen; at 6.7 µM; hits give high values. (A counterscreen serves to expose hits that act by an unwanted route or on another target.)
By inhibition is commonly meant the change of the read-out against control, counted positive when it falls. For `Cc1ccccc1NC1CC(C)(C)NC(C)(C)C1`, the inhibition was inactive: -3.61%.

The values are drawn from PubChem BioAssay AID1823 (The Scripps Research Institute Molecular Screening Center, 2009).
